The hits were mostly taken out for another list; the other results follow. Records with an inconclusive call do not appear. Active and inactive are the calls of the source. Calls follow the shape of the dose curve; as a rule, active = well fitted inhibition curve with a large enough effect in the polarisation, with a control signal flat (not every such curve was filed as active); inconclusive = small, poorly fitted or top-dose-only effect, or effect the other way, or a change in a side signal; inactive = no such curve, though single readings can be large or run the other way; the % refers to the polarisation.
% is scaled to controls: 0 for no effect and ±100 for the full control effect.

Amino acid sequences for entries named in this document (tags omitted).
UniProt Q13526, whole entry, looked up: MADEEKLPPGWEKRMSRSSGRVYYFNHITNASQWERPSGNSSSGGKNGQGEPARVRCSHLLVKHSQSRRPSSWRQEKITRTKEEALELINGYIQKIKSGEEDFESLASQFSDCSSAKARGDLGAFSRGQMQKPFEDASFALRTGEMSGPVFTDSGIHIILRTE

In the assay the target is Peptidyl-prolyl cis-trans isomerase NIMA-interacting 1 (Homo sapiens) (UniProt Q13526). The experiment in a line: qHTS Assay to Find Inhibitors of Pin1. As to conditions: Pin1 FP peptide displacement, HiFluor488, 10 min; at 115 µM (top of the series). The text has this: NIH Molecular Libraries Probe Production Network [MLPCN]
NIH Chemical Genomics Center [NCGC]
The unique chemical properties of Pro allow for the adoption of two completely distinct amide bond conformations (cis and trans). Peptidyl-prolyl cis/trans isomerases (PPIases) are evolutionary conserved enzymes that catalyze cis/trans isomerization of peptidyl-prolyl peptide bonds. Distinct from all other PPIases such as cyclophilins and FK506-binding proteins (FKBPs), Pin1 binds a subset of phos.Ser/Thr-Pro-containing proteins using its protein-targeting WW domain and isomerizes only specific phos.Ser/Thr-Pro bonds, which cannot be effectively catalyzed by other known PPIases. […]
The goal of this screen is to find small-molecule inhibitors of Pin1 using a fluorescence polarization competition assay. […]
Pin1 (0.6 uM) was dispensed into black, solid 1536-well plates at 2 uL/well in 10 mM HEPES (pH 7.5), 10 mM NaCl, 0.01% Tween20, 1 mM DTT, and 1% glycerol. […] The plates were measured on a ViewLux plate reader for fluorescence polarization signal using a 480/20 nM nm excitation filter and 540/25 nM nm S and P emission filters with a 20 second exposure. The %Activity was determined from the corrected fluorescence polarization values. […]
Concentration-response curves were fitted to the signals arising from the resulting fluorescence polarization. […]
(In general: In qHTS, concentration-response curves come from the screen itself.)
For the compound `COc1ccc(CC(C)NCC(O)c2ccc(O)c(NC=O)c2)cc1` (stereo unspecified), the activity, negative = inhibition was inactive: -1.39%.

Values taken from PubChem BioAssay AID504891 (National Center for Advancing Translational Sciences (NCATS), 2011).
